Test system: Sodium Channel, Site 2
Assay: Inhibition of binding of [3H]BTX-B to Wistar rat brain

Nc1nnc(-c2cccc(Cl)c2Cl)c(N)n1 [CEN-1, 3,5-Diamino-6-(2,3-dichlorophenyl)-1,2,4-triazine, reference compound]
[3H]BTX-B binding % inhibition (@ 10 μM) (10 μM): −28% | IC50 (read-out: [3H]BTX-B binding Extrapolated IC50): > 200 µM

Reference: patent US9000155B2, “Cyclic triazo sodium channel blockers” (University of Greenwich, priority 2009, dated 2015)
